Laboratory results: patent US20090099157A1, “TETRAHYDRO-PYRAZOLO-PYRIDINE THIOETHER MODULATORS OF CATHEPSIN S” (priority 2007, published 2009)

The chains behind the UniProt entries cited, without tags or fusion partners. Residues count along the entry.
UniProt P25774, 115-331: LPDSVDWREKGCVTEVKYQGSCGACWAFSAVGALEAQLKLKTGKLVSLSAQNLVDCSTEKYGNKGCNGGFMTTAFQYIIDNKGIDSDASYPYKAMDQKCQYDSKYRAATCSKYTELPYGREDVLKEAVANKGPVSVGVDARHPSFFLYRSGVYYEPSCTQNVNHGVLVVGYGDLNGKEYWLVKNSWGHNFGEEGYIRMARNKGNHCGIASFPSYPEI

biological target: Recombinant human cathepsin S (CatS) (Homo sapiens, UniProt P25774); assay: biochemical

SMILES | IC50
CS(=O)(=O)N1CCc2c(c(-c3ccc(C(F)(F)F)c(SCC(=O)Nc4cccc5c4Cc4ccccc4-5)c3)nn2CC(O)CN2CCC(N3CCCC3=O)CC2)C1 (stereo not shown) [Example 71, N-(9H-Fluoren-1-yl)-2-[5-(1-{2-hydroxy-3-[4-(2-oxo-pyrrolidin-1-yl)-piperidin-1-yl]-propyl}-5-methanesulfonyl-4,5,6,7-tetrahydro-1H-pyrazolo[4,3-c]pyridin-3-yl)-2-trifluoromethyl-phenylsulfanyl]-acetamide] | 2250 nM
CS(=O)(=O)N1CCc2c(c(-c3ccc(C(F)(F)F)c(SCCN4CCCC(CO)C4)c3)nn2CC(O)CN2CCCCC2)C1 (stereo not shown) [Example 457, 1-{3-[3-({2-[3-(Hydroxymethyl)piperidin-1-yl]ethyl}sulfanyl)-4-(trifluoromethyl)phenyl]-5-(methylsulfonyl)-4,5,6,7-tetrahydro-1H-pyrazolo[4,3-c]pyridin-1-yl}-3-piperidin-1-ylpropan-2-ol] | 610 nM
CS(=O)(=O)N1CCc2c(c(-c3ccc(C(F)(F)F)c(SCCN4CCC(F)(F)C4)c3)nn2CC(O)CN2CCN(c3ccccc3C#N)CC2)C1 (stereo not shown) [Example 840, 2-[4-(3-{3-[3-{[2-(3,3-Difluoropyrrolidin-1-yl)ethyl]sulfanyl}-4-(trifluoromethyl)phenyl]-5-(methylsulfonyl)-4,5,6,7-tetrahydro-1H-pyrazolo[4,3-c]pyridin-1-yl}-2-hydroxypropyl)piperazin-1-yl]benzonitrile] | 20 nM
CCN1CCc2c(c(-c3ccc(C(F)(F)F)c(SCC(=O)N4CCCC4)c3)nn2CC(O)CN2CCC(C(N)=O)CC2)C1 (stereo not shown) [Example 331, 1-[3-(5-Ethyl-3-{3-[(2-oxo-2-pyrrolidin-1-ylethyl)sulfanyl]-4-(trifluoromethyl)phenyl}-4,5,6,7-tetrahydro-1H-pyrazolo[4,3-c]pyridin-1-yl)-2-hydroxypropyl]piperidine-4-carboxamide] | 5930 nM
CCOC(=O)NC1CCN(CC(O)Cn2nc(-c3ccc(C(F)(F)F)c(SCCN4CCCC4)c3)c3c2CCN(S(C)(=O)=O)C3)CC1 (stereo not shown) [Example 651, Ethyl (1-{2-hydroxy-3-[5-(methylsulfonyl)-3-{3-[(2-pyrrolidin-1-ylethyl)sulfanyl]-4-(trifluoromethyl)phenyl}-4,5,6,7-tetrahydro-1H-pyrazolo[4,3-c]pyridin-1-yl]propyl}piperidin-4-yl)carbamate] | 95 nM
N#Cc1cccc(C2CCN(CC(O)Cn3nc(-c4ccc(C(F)(F)F)c(SCCN5CCCCC5)c4)c4c3CCNC4)CC2)c1 (stereo not shown) [Example 426, 3-{1-[2-Hydroxy-3-(3-{3-[(2-piperidin-1-ylethyl)sulfanyl]-4-(trifluoromethyl)phenyl}-4,5,6,7-tetrahydro-1H-pyrazolo[4,3-c]pyridin-1-yl)propyl]piperidin-4-yl}benzonitrile] | 270 nM
C[C@H]1COCCN1CCSc1cc(-c2nn(CCCN3CCCCC3)c3c2CN(S(C)(=O)=O)CC3)ccc1C(F)(F)F [Example 145, 3-[3-({2-[(3S)-3-Methylmorpholin-4-yl]ethyl}sulfanyl)-4-(trifluoromethyl)phenyl]-5-(methylsulfonyl)-1-(3-piperidin-1-ylpropyl)-4,5,6,7-tetrahydro-1H-pyrazolo[4,3-c]pyridine] | 1080 nM
NC(=O)NC1CCN(CC(O)Cn2nc(-c3ccc(C(F)(F)F)c(SCCN4CCC(F)(F)C4)c3)c3c2CCNC3)CC1 (stereo not shown) [Example 352, 1-[1-(3-{3-[3-{[2-(3,3-Difluoropyrrolidin-1-yl)ethyl]sulfanyl}-4-(trifluoromethyl)phenyl]-4,5,6,7-tetrahydro-1H-pyrazolo[4,3-c]pyridin-1-yl}-2-hydroxypropyl)piperidin-4-yl]urea] | 1260 nM
O=C1CCCN1C1CCN(CC(O)Cn2nc(-c3ccc(C(F)(F)F)c(SCCN4CCC(F)(F)C4)c3)c3c2CCNC3)CC1 (stereo not shown) [Example 439, 1-[1-(3-{3-[3-{[2-(3,3-Difluoropyrrolidin-1-yl)ethyl]sulfanyl}-4-(trifluoromethyl)phenyl]-4,5,6,7-tetrahydro-1H-pyrazolo[4,3-c]pyridin-1-yl}-2-hydroxypropyl)piperidin-4-yl]pyrrolidin-2-one] | 580 nM
CS(=O)(=O)N1CCc2c(c(-c3ccc(C(F)(F)F)c(SCC(=O)Nc4ccc(-c5ccccc5)cc4)c3)nn2CC(O)CN2CCC(N3CCCC3=O)CC2)C1 (stereo not shown) [Example 66, N-Biphenyl-4-yl-2-[5-(1-{2-hydroxy-3-[4-(2-oxo-pyrrolidin-1-yl)-piperidin-1-yl]-propyl}-5-methanesulfonyl-4,5,6,7-tetrahydro-1H-pyrazolo[4,3-c]pyridin-3-yl)-2-trifluoromethyl-phenylsulfanyl]-acetamide] | 1100 nM
COc1ccc(N2CCN(CC(O)Cn3nc(-c4ccc(C(F)(F)F)c(SCCN5CCCCC5)c4)c4c3CCNC4)CC2)cc1 (stereo not shown) [Example 452, 1-{4-[4-(Methyloxy)phenyl]piperazin-1-yl}-3-(3-{3-[(2-piperidin-1-ylethyl)sulfanyl]-4-(trifluoromethyl)phenyl}-4,5,6,7-tetrahydro-1H-pyrazolo[4,3-c]pyridin-1-yl)propan-2-ol] | 1660 nM
COc1ccccc1C1CCN(CC(O)Cn2nc(-c3ccc(C(F)(F)F)c(SCC(=O)N4CCOCC4)c3)c3c2CCN(S(C)(=O)=O)C3)CC1 (stereo not shown) [Example 833, 1-{4-[2-(Methyloxy)phenyl]piperidin-1-yl}-3-[5-(methylsulfonyl)-3-{3-[(2-morpholin-4-yl-2-oxoethyl)sulfanyl]-4-(trifluoromethyl)phenyl}-4,5,6,7-tetrahydro-1H-pyrazolo[4,3-c]pyridin-1-yl]propan-2-ol] | 10 nM
CS(=O)(=O)N1CCc2c(c(-c3ccc(C(F)(F)F)c(SCCN4CCCC(CO)C4)c3)nn2CC(O)CN2CCC(c3ccccn3)CC2)C1 (stereo not shown) [Example 777, 1-{3-[3-({2-[3-(Hydroxymethyl)piperidin-1-yl]ethyl}sulfanyl)-4-(trifluoromethyl)phenyl]-5-(methylsulfonyl)-4,5,6,7-tetrahydro-1H-pyrazolo[4,3-c]pyridin-1-yl}-3-(4-pyridin-2-ylpiperidin-1-yl)propan-2-ol] | 15 nM
N#Cc1ccccc1N1CCN(CC(O)Cn2nc(-c3ccc(C(F)(F)F)c(SCCN4CCCCC4)c3)c3c2CCNC3)CC1 (stereo not shown) [Example 431, 2-{4-[2-Hydroxy-3-(3-{3-[(2-piperidin-1-ylethyl)sulfanyl]-4-(trifluoromethyl)phenyl}-4,5,6,7-tetrahydro-1H-pyrazolo[4,3-c]pyridin-1-yl)propyl]piperazin-1-yl}benzonitrile] | 230 nM
CS(=O)(=O)N1CCc2c(c(-c3ccc(C(F)(F)F)c(SCCN4CC5CCCC5C4)c3)nn2C[C@@H](O)CN2CCOCC2)C1 (stereo partly drawn) [Example 224, (2S)-1-{3-[3-{[2-(Hexahydrocyclopenta[c]pyrrol-2(1H)-yl)ethyl]sulfanyl}-4-(trifluoromethyl)phenyl]-5-(methylsulfonyl)-4,5,6,7-tetrahydro-1H-pyrazolo[4,3-c]pyridin-1-yl}-3-morpholin-4-ylpropan-2-ol] | 380 nM
CCN1CCc2c(c(-c3ccc(C(F)(F)F)c(SCC(=O)N4CCCC4)c3)nn2CC(O)CN2CCC(c3ccc(C#N)cc3)CC2)C1 (stereo not shown) [Example 585, 4-{1-[3-(5-Ethyl-3-{3-[(2-oxo-2-pyrrolidin-1-ylethyl)sulfanyl]-4-(trifluoromethyl)phenyl}-4,5,6,7-tetrahydro-1H-pyrazolo[4,3-c]pyridin-1-yl)-2-hydroxypropyl]piperidin-4-yl}benzonitrile] | 230 nM
CC(C)(C)C1CCN(CC(O)Cn2nc(-c3ccc(C(F)(F)F)c(SCCN4CCCC4)c3)c3c2CCN(S(C)(=O)=O)C3)CC1 (stereo not shown) [Example 539, 1-[4-(1,1-Dimethylethyl)piperidin-1-yl]-3-[5-(methylsulfonyl)-3-{3-[(2-pyrrolidin-1-ylethyl)sulfanyl]-4-(trifluoromethyl)phenyl}-4,5,6,7-tetrahydro-1H-pyrazolo[4,3-c]pyridin-1-yl]propan-2-ol] | 160 nM
CS(=O)(=O)N1CCc2c(c(-c3ccc(C(F)(F)F)c(SCCN4CCC[C@H](O)C4)c3)nn2C[C@@H](O)CN2CCCCC2)C1 [Example 393, (3S)-1-(2-{[5-{1-[(2S)-2-Hydroxy-3-piperidin-1-ylpropyl]-5-(methylsulfonyl)-4,5,6,7-tetrahydro-1H-pyrazolo[4,3-c]pyridin-3-yl}-2-(trifluoromethyl)phenyl]sulfanyl}ethyl)piperidin-3-ol] | 590 nM
CC1(O)CCN(C[C@H](O)Cn2nc(-c3ccc(C(F)(F)F)c(SCCN4CCCC(F)(F)C4)c3)c3c2CCN(S(C)(=O)=O)C3)CC1 [Example 631, 1-[(2S)-3-{3-[3-{[2-(3,3-Difluoropiperidin-1-yl)ethyl]sulfanyl}-4-(trifluoromethyl)phenyl]-5-(methylsulfonyl)-4,5,6,7-tetrahydro-1H-pyrazolo[4,3-c]pyridin-1-yl}-2-hydroxypropyl]-4-methylpiperidin-4-ol] | 290 nM
CN(C)C1CCN(CCSc2cc(-c3nn(CCCN4CCC(N5CCCC5=O)CC4)c4c3CN(S(C)(=O)=O)CC4)ccc2C(F)(F)F)CC1 [Example 34, 1-{1-[3-(3-{3-[2-(4-Dimethylamino-piperidin-1-yl)-ethylsulfanyl]-4-trifluoromethyl-phenyl}-5-methanesulfonyl-4,5,6,7-tetrahydro-pyrazolo[4,3-c]pyridin-1-yl)-propyl]-piperidin-4-yl}-pyrrolidin-2-one] | 1570 nM
CN(CCSc1cc(-c2nn(CCCN3CCCCC3)c3c2CN(S(C)(=O)=O)CC3)ccc1C(F)(F)F)Cc1ccccc1 [Example 415, N-Methyl-2-({5-[5-(methylsulfonyl)-1-(3-piperidin-1-ylpropyl)-4,5,6,7-tetrahydro-1H-pyrazolo[4,3-c]pyridin-3-yl]-2-(trifluoromethyl)phenyl}sulfanyl)-N-(phenylmethyl)ethanamine] | 4970 nM
O=C(CO)NC1CCN(CC(O)Cn2nc(-c3ccc(C(F)(F)F)c(SCC(=O)N4CCCC4)c3)c3c2CCNC3)CC1 (stereo not shown) [Example 332, 2-Hydroxy-N-{1-[2-hydroxy-3-(3-{3-[(2-oxo-2-pyrrolidin-1-ylethyl)sulfanyl]-4-(trifluoromethyl)phenyl}-4,5,6,7-tetrahydro-1H-pyrazolo[4,3-c]pyridin-1-yl)propyl]piperidin-4-yl}acetamide] | 810 nM
